# Assay results from ChEMBL document CHEMBL5528084, “Discovery and Characterization of a New Class of C5aR1 Antagonists Showing In Vivo Activity” (J Med Chem, 2024).
# Biological target: T1, C3a anaphylatoxin chemotactic receptor (Homo sapiens) (UniProt Q16581)
# T1 sequence (whole entry): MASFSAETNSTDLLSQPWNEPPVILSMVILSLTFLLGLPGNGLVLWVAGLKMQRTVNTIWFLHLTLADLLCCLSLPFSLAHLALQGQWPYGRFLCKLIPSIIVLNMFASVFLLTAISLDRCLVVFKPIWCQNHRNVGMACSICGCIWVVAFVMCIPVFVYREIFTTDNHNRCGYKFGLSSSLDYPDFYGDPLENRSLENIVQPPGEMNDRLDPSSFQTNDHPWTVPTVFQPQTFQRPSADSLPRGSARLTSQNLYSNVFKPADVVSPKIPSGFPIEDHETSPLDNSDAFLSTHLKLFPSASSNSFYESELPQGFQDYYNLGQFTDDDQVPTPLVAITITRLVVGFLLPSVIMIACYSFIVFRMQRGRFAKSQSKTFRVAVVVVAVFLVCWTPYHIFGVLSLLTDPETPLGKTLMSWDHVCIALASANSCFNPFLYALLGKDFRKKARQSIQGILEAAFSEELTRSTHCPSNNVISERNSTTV
# Assay: Inhibition of C3aR (unknown origin) upto 25 uM
structure (smiles),measurement,value
Cc1cccc(F)c1N1CCC(N2Cc3ccccc3N(Cc3ccccc3C(F)(F)F)C2=O)CC1,inhibition,inactive

# Activity calls are given as the source filed them. No cut-off for these calls is given here.
